Data reported in US20230131993A1 (priority 2020, published 2023).

Assay: Oxipres stability test of DragoCalm: Avenanthramide L
Settings: before and after Oxipres treatment, additive 0.10 %

SMILES: CC(=O)c1ccc(O)cc1 [4-Hydroxyacetophenone]
- Degradation of Avenanthramide L (%): 11.1%
